# Measurements from US10106526B2, “Inhibitors of cyclin-dependent kinase 7 (CDK7)” (SYROS PHARMACEUTICALS, INC., priority 2014, dated 2018).
# Sequences of proteins named here, by UniProt entry; tags and fusion partners are left off.
# UniProt P50613, whole entry: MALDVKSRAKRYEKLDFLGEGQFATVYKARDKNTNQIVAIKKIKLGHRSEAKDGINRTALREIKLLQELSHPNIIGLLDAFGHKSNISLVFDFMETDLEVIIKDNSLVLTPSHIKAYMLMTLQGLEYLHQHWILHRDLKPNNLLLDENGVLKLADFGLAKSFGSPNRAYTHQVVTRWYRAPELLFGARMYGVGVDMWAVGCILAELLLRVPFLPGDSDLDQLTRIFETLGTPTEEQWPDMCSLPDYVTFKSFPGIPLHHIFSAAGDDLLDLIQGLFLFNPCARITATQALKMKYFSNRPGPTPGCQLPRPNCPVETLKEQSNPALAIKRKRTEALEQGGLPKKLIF
# UniProt P51946, whole entry partner: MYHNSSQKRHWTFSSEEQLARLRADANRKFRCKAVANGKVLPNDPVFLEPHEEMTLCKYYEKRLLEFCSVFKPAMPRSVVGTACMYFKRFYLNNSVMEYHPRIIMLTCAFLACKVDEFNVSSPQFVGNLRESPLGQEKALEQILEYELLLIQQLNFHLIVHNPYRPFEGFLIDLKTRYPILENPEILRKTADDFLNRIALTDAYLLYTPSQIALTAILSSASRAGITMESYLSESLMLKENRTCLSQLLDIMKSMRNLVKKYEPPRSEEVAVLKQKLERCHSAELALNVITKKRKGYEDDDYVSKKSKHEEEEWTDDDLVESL
# UniProt P51948, whole entry partner: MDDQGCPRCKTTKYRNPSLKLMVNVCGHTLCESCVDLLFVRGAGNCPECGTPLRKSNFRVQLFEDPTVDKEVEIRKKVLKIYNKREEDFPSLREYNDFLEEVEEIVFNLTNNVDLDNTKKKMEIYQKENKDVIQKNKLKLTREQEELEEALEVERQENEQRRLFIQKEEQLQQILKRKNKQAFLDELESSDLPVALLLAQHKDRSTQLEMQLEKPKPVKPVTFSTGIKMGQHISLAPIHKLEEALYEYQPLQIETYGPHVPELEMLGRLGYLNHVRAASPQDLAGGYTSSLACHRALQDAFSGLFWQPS
# How the values were obtained:
# A673 cells = test: Inhibition of proliferation of A673 cells (CyQUANT, 72 hour); conditions: read-out: A673 IC50, 72 hour proliferation
# Protocol: A673 cells are a cell line derived from human muscle Ewing's sarcoma. Representative compounds of the invention were tested at different concentrations (from 4 μM to 126.4 pM; 0.5 log serial dilutions) for their ability to inhibit the proliferation of A673 cells. Known CDK inhibitors flavopiridol and triptolide were used as positive controls. Cells were grown in Dulbecco's Modified Eagle's Medium, +10% FBS+1 mM Sodium Pyruvate. The cells were cultured at 37° C. in a humidified chamber in the presence of 5% CO2. Proliferation assays were conducted over a 72 hour time period. CyQUANT® (Life Technologies, Chicago, Ill. USA) was used to assess the anti-proliferative effects of the compounds following manufacturer's directions and utilizing the reagents supplied with the CyQUANT® kit. In this table, “A” represents an IC50 of less than 500 nM; “B” an IC50 of between 500 nM and 5 μM; and “C” an IC50 of greater than 5 μM.
# CDK7 = CDK7 (Homo sapiens, UniProt P50613); test: CDK7 kinase activity, Adapta kinase assay (Life Technologies); conditions: read-out: CDK7 Inhibition (IC50); Adapta kinase assay at Life Technologies; 10 μM down to 0.514 nM, 3-fold serial dilutions
# [1] = biological target: CDK7/Cyclin H/MAT1 trimeric complex (Homo sapiens, UniProt P50613); test: CDK7 kinase assay, Caliper/LabChip EZ Reader (Biortus Biosciences); conditions: read-out: CDK7 Inhibition (IC50), CDK7/Cyclin H/MAT1 10 nM, ATP 2 mM, FAM-CDK7tide 2 μM, 30 min incubation
# Jurkat cells = test: Inhibition of proliferation of Jurkat cells (CellTiter-Glo, 72 hour); conditions: read-out: Jurkat IC50, 10 μM to 316 pM
Structure (SMILES),IC50 (CDK7) [nM],IC50 [1] [nM],IC50 (Jurkat cells) [nM],IC50 (A673 cells) [nM]
O=C(/C=C/CN1CCOCC1)Nc1ccc(C(=O)N[C@H]2CCC[C@@H](Nc3ncc(Cl)c(-c4c[nH]c5ccccc45)n3)C2)nc1,< 100,100 to 1000,–,< 500
C=CC(=O)N1CCC(CN[C@H]2CCC[C@@H](Nc3ncc(Cl)c(-c4cnn5ccccc45)n3)C2)CC1,100 to 1000,< 100,–,< 500
C=CC(=O)Nc1ccc2c(c1)CN([C@@H]1CCCC(Nc3ncc(Cl)c(-c4c[nH]c5ccccc45)n3)C1)C2 (some centres unmarked),< 100,–,500 to 5000,< 500
C=CC(=O)N1CCC(CN([C@H]2CCC[C@@H](Nc3ncc(Cl)c(-c4c[nH]c5ccccc45)n3)C2)S(C)(=O)=O)CC1,100 to 1000,–,500 to 5000,–
C=CC(=O)N1CCC(CN[C@H]2CCC[C@@H](Nc3ncc(Cl)c(-c4c[nH]c5ccccc45)n3)C2)C1 (some centres unmarked),100 to 1000,–,–,< 500
CN(C)C/C=C/C(=O)N1CCC(CNC2CCCC(Nc3ncc(Cl)c(-c4c[nH]c5ccccc45)n3)C2)CC1 (centres unmarked),< 100,–,> 5000,–
CN(C)C/C=C/C(=O)NC1CCN([C@@H]2CCC[C@@H](Nc3ncc(Cl)c(-c4c[nH]c5ccccc45)n3)C2)CC1,< 100,–,500 to 5000,< 500
C=CC(=O)N1CCC(C(=O)N[C@H]2CC[C@@H](Nc3ncc(Cl)c(-c4c[nH]c5ccccc45)n3)CC2)CC1,100 to 1000,–,< 500,< 500
C=CCC(=O)N1CCC(CNC2CCCC(Nc3ncc(Cl)c(-c4c[nH]c5ccccc45)n3)C2)CC1 (centres unmarked),< 100,–,< 500,–
C=CC(=O)N1CCC(CN(C(=O)C=C)[C@H]2CC[C@H](Nc3ncc(Cl)c(-c4c[nH]c5ccccc45)n3)CC2)CC1,> 1000,–,< 500,< 500
C=CC(=O)N1CCC(CN(C)[C@H]2CCC[C@@H](Nc3ncc(Cl)c(-c4cnn5ccccc45)n3)C2)CC1,100 to 1000,–,< 500,< 500
CN(C)C/C=C/C(=O)N1CCC(C(=O)N[C@H]2CCC[C@@H](Nc3ncc(C4CC4)c(-c4c[nH]c5ccccc45)n3)C2)CC1,100 to 1000,–,500 to 5000,< 500
C=CC(=O)N1CCC(C(=O)N[C@H]2CCC[C@@H](Nc3ncc(C4CC4)c(-c4c[nH]c5ccccc45)n3)C2)CC1,100 to 1000,–,< 500,500 to 5000
C=CC(=O)N1CCC(CN(C)[C@H]2CCC[C@@H](Nc3ncc(C4CC4)c(-c4c[nH]c5ccccc45)n3)C2)CC1,100 to 1000,–,< 500,–
CN(C)C/C=C/C(=O)N1CCC(C(=O)N2CCC(Nc3ncc(Cl)c(-c4c[nH]c5ccccc45)n3)CC2)CC1,< 100,–,500 to 5000,–
CN(C)C/C=C/C(=O)N1CCCC(C(=O)N[C@H]2CC[C@@H](Nc3ncc(Cl)c(-c4c[nH]c5ccccc45)n3)CC2)C1 (some centres unmarked),100 to 1000,–,500 to 5000,< 500
C=CC(=O)N1CCCC(CN[C@H]2CCC[C@@H](Nc3ncc(Cl)c(-c4c[nH]c5ccccc45)n3)C2)C1 (some centres unmarked),100 to 1000,< 100,–,< 500
C=CC(=O)N1CCC(CN(C(=O)OC)[C@H]2CCC[C@@H](Nc3ncc(Cl)c(-c4c[nH]c5ccccc45)n3)C2)CC1,100 to 1000,–,500 to 5000,–
CN(C)C/C=C/C(=O)NC1CCN([C@H]2CCC[C@@H](Nc3ncc(Cl)c(-c4c[nH]c5ccccc45)n3)C2)CC1,100 to 1000,–,–,< 500
CN(C)C/C=C/C(=O)N1CCC(C(=O)N[C@H]2CCC[C@@H](Nc3ncc(Cl)c(-c4c[nH]c5ccccc45)n3)C2)CC1,< 100,< 100,–,–
C=CC(=O)N1CCCC(C(=O)N[C@H]2CC[C@@H](Nc3ncc(Cl)c(-c4c[nH]c5ccccc45)n3)CC2)C1 (some centres unmarked),100 to 1000,–,< 500,–
CN(C)C/C=C/C(=O)N1CCC(CN(C)[C@H]2CCC[C@@H](Nc3ncc(Cl)c(-c4c[nH]c5ccccc45)n3)C2)CC1,< 100,–,< 500,< 500
CN(C)C/C=C/C(=O)N1CCCC(C(=O)N[C@H]2CC[C@H](Nc3ncc(Cl)c(-c4c[nH]c5ccccc45)n3)CC2)C1 (some centres unmarked),< 100,–,< 500,–
CN(C)CC=CC(=O)Nc1cnc(CNC2CCCC(Nc3ncc(Cl)c(-c4n[nH]c5ccccc45)n3)C2)nc1 (centres unmarked),–,< 100,–,< 500
C=CC(=O)N1CCC(CN[C@H]2CC[C@@H](Nc3ncc(Cl)c(-c4c[nH]c5ccccc45)n3)C2)CC1,–,< 100,–,500 to 5000
Cc1cccc2c(-c3nc(N[C@@H]4CCC[C@H](N5CCN(C(=O)/C=C/CN(C)C)CC5)C4)ncc3Cl)c[nH]c12,–,< 100,–,< 500
Cc1cnc(N[C@@H]2CCC[C@H](NC(=O)C3CCN(C(=O)/C=C/CN(C)C)CC3)C2)nc1-c1c[nH]c2ccccc12,100 to 1000,–,500 to 5000,< 500
C=CC(=O)Nc1ccc2c(c1)CCN(C1CCCC(Nc3ncc(Cl)c(-c4c[nH]c5ccccc45)n3)C1)C2=O (centres unmarked),–,100 to 1000,–,< 500
C=CC(=O)N1CCC(CN[C@H]2CCC[C@@H](Nc3ncc(Cl)c(-c4n[nH]c5ccccc45)n3)C2)C1 (some centres unmarked),–,100 to 1000,–,< 500

# Second part, led by results:
IC50 (CDK7) [nM],IC50 [1] [nM],IC50 (Jurkat cells) [nM],Structure (SMILES),IC50 (A673 cells) [nM]
100 to 1000,< 100,–,C=CC(=O)NC1CCN([C@H]2CCC[C@@H](Nc3ncc(Cl)c(-c4c[nH]c5ccccc45)n3)C2)CC1,< 500
< 100,–,–,C=CC(=O)NC1CCN([C@@H]2CCC[C@@H](Nc3ncc(Cl)c(-c4c[nH]c5ccccc45)n3)C2)CC1,< 500
< 100,–,> 5000,C=CC(=O)N1CCN([C@H]2CCC[C@@H](Nc3ncc(Cl)c(-c4cnn5ccccc45)n3)C2)CC1,< 500
–,100 to 1000,–,C=CC(=O)N1Cc2cn([C@H]3CCC[C@@H](Nc4ncc(Cl)c(-c5c[nH]c6ccccc56)n4)C3)nc2C1,< 500
–,< 100,–,C/C=C/C(=O)N1CCN(C2CCC[C@@H](Nc3ncc(Cl)c(-c4c[nH]c5ccccc45)n3)C2)CC1 (some centres unmarked),< 500
–,< 100,–,C=CC(=O)N1CCN([C@H]2CCC[C@@H](Nc3ncc(C(F)(F)F)c(-c4c[nH]c5ccccc45)n3)C2)CC1,< 500
–,100 to 1000,–,C=CC(=O)N1CC2(CCN([C@H]3CCC[C@@H](Nc4ncc(Cl)c(-c5c[nH]c6ccccc56)n4)C3)C2)C1,< 500
–,< 100,–,C=CC(=O)N1CCCC(N[C@H]2CCC[C@@H](Nc3ncc(Cl)c(-c4c[nH]c5ccccc45)n3)C2)C1 (some centres unmarked),< 500
–,< 100,–,C=CC(=O)N1CCC(N(C)C[C@H]2CCC[C@@H](Nc3ncc(Cl)c(-c4c[nH]c5ccccc45)n3)C2)CC1,< 500
–,> 1000,–,C=CC(=O)N1CCN([C@@H]2CCC[C@@H](Nc3ncc(Cl)c(-c4c[nH]c5ccccc45)n3)C2)CC1C(F)(F)F (some centres unmarked),< 500
–,< 100,–,C=CC(=O)N1CCN([C@H]2CCC[C@@H](Nc3ncc(Cl)c(-c4c[nH]c5c(F)cccc45)n3)C2)CC1,< 500
–,< 100,–,C=CC(=O)N1CCC(C(=O)N[C@H]2CCC[C@@H](Nc3ncc(CC)c(-c4c[nH]c5ccccc45)n3)C2)CC1,< 500
–,< 100,–,C=CC(=O)N1CCC(C(=O)N[C@H]2CCC[C@@H](Nc3ncc(C(F)(F)F)c(-c4c[nH]c5ccccc45)n3)C2)CC1,< 500
–,100 to 1000,–,C=CC(=O)N1CCN([C@H]2CCC[C@@H](Nc3ncc(Cl)c(-c4cn(C)c5ccccc45)n3)C2)CC1,< 500
